The target in this test is EphA2 kinase (Homo sapiens, UniProt P29317). Briefly: biochemical.

Sequences of proteins named here, by UniProt entry; tags and fusion partners are left off. Residues count along the entry.
UniProt P29317, 24-976: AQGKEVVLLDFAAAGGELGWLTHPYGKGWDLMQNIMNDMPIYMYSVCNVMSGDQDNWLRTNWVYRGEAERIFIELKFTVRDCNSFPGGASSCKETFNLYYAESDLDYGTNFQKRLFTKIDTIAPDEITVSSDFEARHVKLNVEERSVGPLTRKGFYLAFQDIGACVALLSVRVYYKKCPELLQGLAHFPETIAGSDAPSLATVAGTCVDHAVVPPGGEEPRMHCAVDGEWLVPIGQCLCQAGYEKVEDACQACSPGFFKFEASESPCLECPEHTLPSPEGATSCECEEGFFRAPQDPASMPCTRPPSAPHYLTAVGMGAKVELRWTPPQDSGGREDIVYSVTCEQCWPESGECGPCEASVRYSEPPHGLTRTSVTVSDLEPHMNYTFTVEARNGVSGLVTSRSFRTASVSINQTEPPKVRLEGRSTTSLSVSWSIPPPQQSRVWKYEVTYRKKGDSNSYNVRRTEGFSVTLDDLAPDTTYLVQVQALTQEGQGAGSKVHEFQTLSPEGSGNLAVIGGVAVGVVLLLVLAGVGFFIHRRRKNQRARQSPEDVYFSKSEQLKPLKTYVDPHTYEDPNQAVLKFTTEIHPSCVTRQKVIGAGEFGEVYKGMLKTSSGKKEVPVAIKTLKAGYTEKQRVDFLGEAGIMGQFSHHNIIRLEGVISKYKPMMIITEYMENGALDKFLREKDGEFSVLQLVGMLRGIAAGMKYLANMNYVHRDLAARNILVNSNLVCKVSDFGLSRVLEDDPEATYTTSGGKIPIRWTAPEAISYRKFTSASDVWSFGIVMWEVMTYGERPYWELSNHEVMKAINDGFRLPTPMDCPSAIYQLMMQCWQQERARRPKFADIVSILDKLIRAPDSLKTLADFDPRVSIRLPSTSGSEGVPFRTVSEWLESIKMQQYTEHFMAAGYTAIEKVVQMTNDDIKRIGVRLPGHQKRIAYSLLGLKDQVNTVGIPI

Usually IC50 stands for the point on the concentration scale where inhibition reaches its midpoint. The compound `COc1cc(Nc2nccc(Nc3c(Cl)ccc4c3OCO4)n2)cc(OC)c1OC` [Example 1, N˜4˜-(5-Chloro-1,3-benzodioxol-4-yl)-N˜2˜-(3,4,5-trimethoxyphenyl)pyrimidine-2,4-diamine] registered an IC50 of 15 nM.
